# Measurements reported in patent US8017791B2 (dated 2011).
# Biological target: NET (Rattus norvegicus, UniProt Q9WTR4)
# Test: Inhibition of [3H]nisoxetine binding to NET
# Settings: read-out: Radioligand Kd
substance,measurement,value
[^3H]nisoxetine [reference compound],Kd,2.2 nM
